Series [1] can be described thus: Penetration of biotinylated CGRP into penile fossa navicularis tissue explants. Also noted: species or system human. The conditions noted are these: 500 nM or 5 μM added to the apical side for 3 h; histochemistry with streptavidin-HRP; n = 3 tissues. How it is done: Polarized penile fossa navicularis tissue explants were prepared as we previously described ([21]), and exposed for 3 h to 500 nM or 5 μM biotinylated CGRP in 100 μl RPMI 1640 added to the apical side. After incubation, tissue penetration of biotinylated CGRP was examined by histochemistry of 4 μm paraffin sections as we described ([21]), using HRP-coupled streptavidin (Vector), followed by the red 3-amino-9-ethylcarbazole (AEC) HRP substrate (Dako) and counterstaining with hematoxylin. Images were acquired with an Olympus BX63F microscope using MetaMorph (Molecular Devices) and analyzed with ImageJ software.
Figure 6 CGRP and SAX inhibit mucosal HIV-1 transmission in human mucosal tissues ex-vivo. […] Images are representative of n = 3 tissues; broken lines denote the basement membranes and scale bar = 20 μm; E, epithelium and S, stroma. (B, C) Inner foreskin tissue explants were left untreated or pre-treated with CGRP or SAX (1 μM) for 24 h at 37°C. Explants were next inoculated in a polarized manner with either non-infected or HIV-1-infected PBMCs for 4 h, and immediately digested with dispase/trypsin. In panel (B), shown are representative flow cytometry dot plots of epidermal cell suspensions triple stained for surface expression of CD3, CD8, and CD1a and examined by flow cytometry. […]

Series [2] concerns STAT4 expression in MDLCs. Kind of series: STAT4 Western blot in MDLCs. The series is classed as cell-based, human. The conditions noted are these: n = 4. The method, then: For PBMCs, cells (2 × 10^6/sample) were activated with PHA (5 μg/ml) + IL2 (100 U/ml) for 48 h at 37°C, serum-starved overnight, and stimulated for 30 min at 37°C with either IL12 (10 ng/ml; R&D systems) or interferon alpha (IFNα, 5 × 10^4 U/ml; pbl Assay Science). For MDLCs, cells (2 × 10^6/sample) were re-suspended in complete RPMI medium without cytokines and rested overnight at 37°C. MDLCs were next treated for 24 h at 37°C with CGRP (0.1 μM), SAX (0.1 μM), CGRP1–8 (10 μM), or lipopolysaccharide (LPS, 10 μg/ml). The CGRP receptor antagonist BIBN4096 (1 μM) was added 15 min before agonists. The cells were then washed and stimulated for 30 min at 37°C with combination of IL12 + IFNα at the concentrations indicated above. […] Protein contents in cell lysates were quantified using the BCA kit (Thermo Fisher) according to the manufacturer’s instructions, and 20 μg proteins were mixed with loading buffer (100 mM Tris pH 7.2, 5% β-mercaptoethanol, 12% glycerol, 5 mM EDTA, 5% SDS, 0.01% bromophenol blue), heated for 5 min at 95°C, run over a 10% SDS-PAGE, and transferred onto nitrocellulose membranes. […] Images were acquired with the Fusion FX camera platform (Vilber Lournmat) and protein expression was quantified with ImageJ software (NIH). […]

Series [3] relates to normal female BALB/c mice. Nature of the series: Intravaginal CGRP in normal BALB/c mice: toxicity and immune cells. The format is in vivo, mouse. How it is done: CGRP (10 nM, 100 nM or 1 μM) was diluted in 30 μl sterile phosphate-buffered saline (PBS), alone or in combination with 1% hydrocortisone, and applied intravaginally for 6 h in normal female BALB/c mice (10 weeks old, 25–30 g, synchronized in estrous cycle). Spleen, lymph nodes, gut, liver, kidneys, and female reproductive system were then collected, and hematoxylin and eosin stained 3 μm paraffin sections were examined for histopathological analysis. Selected slides were stained after antigen retrieval with monoclonal Abs (Bio-Rd), including rat-anti-human CD3, rat-anti-mouse B220/CD45R (clone RA3-6B2), and rat-anti-mouse F4/80 (clone CI:A31), followed by rat on rodent horseradish peroxidase (HRP)-polymer, 3,3’-diaminobenzidine (DAB) as chromogen (Biocare Medical) and counterstaining with hematoxylin. Images were acquired with the AxioCam HRc using the AxioVision System SE64 (Zeiss).
Figure 1 CGRP limits mucosal HIV-1 transmission in-vivo. (A) CGRP (1 μM) or PBS were topically applied intravaginally in normal female BALB/c mice (n = 3 animals per group). Vaginal tissue sections were examined by immunohistochemistry for the presence of CD3+ T-cells, B220+ B cells and F4/80+ macrophages. Shown are mean ± SEM cell densities expressed as cells/mm^2 (of n = 3 independent experiments) in either the vaginal epithelium or stroma. (B) Representative image of the vaginal tissue of humanized BLT mice, showing expression of human langerin (arrowheads) in the epithelium; broken line denotes the basement membrane and scale bar = 20 μm. (C) Experimental schedule for preparing humanized female BLT mice, intravaginally applying CGRP or PBS followed by vaginal challenge with high-dose HIV-1 JRCSF, and subsequent blood sampling for measurement of plasma viral loads and CD4+ T-cells counts. (D, E) Shown are mean ± SEM (n = 5 BLT mice per group) of plasma viral loads (HIV-1 RNA copies/ml) or CD4+ T-cells percentages (fold). *p < 0.0500, **p < 0.0050, ***p < 0.0005; two-sided Student’s t-test.

A further series deals with MDLCs. Kind of series: MDLC viability after CGRP treatment. The following applies: up to 10 μM for 24 h in-vitro. The series is classed as cell-based, human. How it is done: First, as CGRP mediates vasodilator-dependent neurogenic inflammation that can result in immune cell recruitment, we topically applied CGRP onto the vagina of normal BALB/c mice for 6 h and examined potential toxicity and immune cells modulation.

“biotinylated CGRP: biotinylated CGRP (AnaSpec)”: in series [1], the Mucosal tissue penetration result is “readily penetrated the epithelium, but not the stroma”.
For calcitonin gene-related peptide [CGRP], the “Total STAT4 expression” value in series [2] (MDLCs treated 24 h, CGRP 0.1 μM, SAX 0.1 μM, CGRP1–8 10 μM, LPS 10 μg/ml, normalized to beta actin) was “significantly increased”. Moreover, the “Phosphorylation of induced STAT4 (pSTAT4) upon cytokine stimulation” value in series [2] (after 24 h agonist treatment, 30 min IL12 + IFNα) is listed as “could be readily phosphorylated”. In addition, in series [3] (10 nM, 100 nM or 1 μM topically on the vagina for 6 h), the Inflammation result is on record as “did not induce overt inflammation”. The Signs of toxicity entry in series [3] (10 nM, 100 nM or 1 μM topically on the vagina for 6 h, histopathology) is “did not induce signs of toxicity”. Moreover, the “Distribution and/or density of T cells, B cells and macrophages in vaginal epithelium and stroma” value in series [3] (1 μM intravaginally, immunohistochemistry, n = 3 animals per group) is given as “did not modify”. For the same substance, the “Cell viability of MDLCs” value in the series with MDLCs is reported as “did not affect cell viability”.
